The data set is described as follows: Blood pressure after single oral dose in healthy male volunteers. Particulars: 10 mg orally, healthy subjects. The method, then:
Ten healthy male volunteers were tested on two separate occasions one week apart. On both occasions their blood pressure was measured at baseline.

In the case of S-(−)-pindolol [(−) pindolol], the blood pressure entry was “no alteration in blood pressure”. Also, for the setting “listed as S(−)-pindolol”, the blood pressure result was “no alteration in blood pressure in a majority of healthy subjects”.

For the origin of these results see US20080262071A1 (priority 2004, published 2008).
